HCMV UL50-53 inh: cytomegalovirus nuclear egress complex inhibition | HTRF UL50-UL53 interaction, normalized percent inhibition | inhibition, % (no concentration beside the values) | 190,000 tested, 0.15% active | AID 1918969; in the data active = inhibition above about 27%, passing the limit was not always enough
GIV-Gai inh: GIV-Galpha-i interaction inhibition. 210,000 compounds, 0.42% hits. percent of control (FP), % (no concentration beside the values). Galpha-i3/FITC-GIV peptide fluorescence polarization, 90 min; active compounds read low; scaled: aluminum fluoride 0%, vehicle 100%. AID 1224905. P08753;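 active = replicate mean at 85% of control or lower, very high polarization wells dropped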;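 note: wells of about 15 µL received 100 nL stock; the first replicate is given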
GIV Gai FP conf: confirmation of inhibitors of GIV binding to rat Galpha-i3; shares compounds with GIV-Gai inh; FITC-GIV peptide binding to Galphai3, fluorescence polarization; stronger effect = lower value; fluorescence polarization, mP at 100 µM; 580 tested, 38% active;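 active = inhibition score of 15 or more, meaning 100 minus mean polarization as percent of control over three replicates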
GIV Gai AS conf: GIV-Galpha-i3 inhibition, AlphaScreen confirmation; shares compounds with GIV-Gai inh; AlphaScreen Galphai3-GIV binding, purified proteins, 90 min; stronger effect = lower value; AlphaScreen counts at 100 µM; 580 tested, 39% active; AID 1259351;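 active = inhibition score at or above a set limit, where the score is 100 minus the three-replicate mean percent of control signal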
* = called active by the depositor. An excerpt weighted towards active compounds, which were near 0.43% of everything screened.

CCOc1ccccc1C(c1c(C)[nH]n(-c2ccccc2)c1=O)c1c(C)[nH]n(-c2ccccc2)c1=O was read as GIV-Gai inh 112.8.
Screening COc1cc(C(c2c(C)[nH]n(-c3ccccc3)c2=O)c2c(C)[nH]n(-c3ccccc3)c2=O)ccc1O returned GIV-Gai inh 120.3.
`Cc1[nH]n(-c2ccccc2)c(=O)c1C(c1ccc(OCc2ccccc2Cl)cc1)c1c(C)[nH]n(-c2ccccc2)c1=O` gave GIV-Gai inh 106.5.
Cc1[nH]n(-c2ccccc2)c(=O)c1C(c1ccccc1)c1c(C)[nH]n(-c2ccccc2)c1=O was read as GIV-Gai inh 77.1*, GIV Gai FP conf 62.9 and GIV Gai AS conf 18252*.
Screening CCCCCCCOc1ccc(C(c2c(C)[nH]n(-c3ccccc3)c2=O)c2c(C)[nH]n(-c3ccccc3)c2=O)cc1 returned GIV-Gai inh 82.0*, GIV Gai FP conf 73.1 and GIV Gai AS conf 41609.
`Cc1[nH]n(-c2ccccc2)c(=O)c1C(c1ccc(N(C)C)cc1)c1c(C)[nH]n(-c2ccccc2)c1=O` gave GIV-Gai inh 104.4.
COc1cccc(Nc2ncc3c(n2)CCN(Cc2ccccc2F)C3)c1 was read as HCMV UL50-53 inh 18.9 and GIV-Gai inh 105.7.
Screening CC1(NS(=O)(=O)c2ccccc2)CCS(=O)(=O)C1 (configuration not stated) returned HCMV UL50-53 inh -12.7 and GIV-Gai inh 100.3.
Screening Cc1[nH]n(-c2ccccc2)c(=O)c1C(c1cccc(Br)c1)c1c(C)[nH]n(-c2ccccc2)c1=O returned GIV-Gai inh 73.6*, GIV Gai FP conf 67.7 and GIV Gai AS conf 23480*.
For Cc1[nH]n(-c2ccccc2)c(=O)c1C(c1cccc([N+](=O)[O-])c1)c1c(C)[nH]n(-c2ccccc2)c1=O the results were GIV-Gai inh 103.1.
`COc1cccc(-n2c(N)c(C(N)=O)c3nc4ccccc4nc32)c1` gave HCMV UL50-53 inh -5.4 and GIV-Gai inh 105.0.
For CCc1noc(-c2c(C)[nH]c(C)c2S(=O)(=O)N2CCOCC2)n1 the results were GIV-Gai inh 101.6.

Pulled by compound from the list above:
Screening Cc1[nH]n(-c2ccccc2)c(=O)c1C(c1cccc(Br)c1)c1c(C)[nH]n(-c2ccccc2)c1=O returned GIV-Gai inh 73.6*, GIV Gai FP conf 67.7 and GIV Gai AS conf 23480*.
Screening COc1cc(C(c2c(C)[nH]n(-c3ccccc3)c2=O)c2c(C)[nH]n(-c3ccccc3)c2=O)ccc1O returned GIV-Gai inh 120.3.

(cont.)
`O=C1/C(=C/c2cccnc2)CCCC/C1=C\c1cccnc1` gave HCMV UL50-53 inh 13.2.
For O=C1/C(=C/c2ccncc2)CCC/C1=C\c1ccncc1 the results were HCMV UL50-53 inh -20.8, GIV-Gai inh 51.5*, GIV Gai FP conf 51.1* and GIV Gai AS conf 18754*.
Screening O=C(CSC1=NCCS1)c1cc(Cl)ccc1Cl returned HCMV UL50-53 inh -42.4.
For O=C(O)CC(Sc1nc2sc3c(c2c(=O)[nH]1)CCCC3)C(=O)O (configuration not stated) the results were GIV-Gai inh 75.1*, GIV Gai FP conf 51.5* and GIV Gai AS conf 16638*.
Screening O=c1[nH]c(SCCO)nc2sc3c(c12)CCCC3 returned HCMV UL50-53 inh 0.5.
`COC(=O)Cc1c(C)c2cc3c(c(C)c2oc1=O)OCN(CCc1ccc(OC)cc1)C3` gave HCMV UL50-53 inh -45.8 and GIV-Gai inh 98.5.
`CCc1c(C)c2cc3c(c(C)c2oc1=O)OCN(CCc1ccc(OC)c(OC)c1)C3` gave HCMV UL50-53 inh -33.1, GIV-Gai inh 82.7*, GIV Gai FP conf 79.3 and GIV Gai AS conf 14061*.
For Cc1cc(C)nc(NC(c2ccccc2)c2cc(C)sc2NC(=O)c2ccccc2)n1 (configuration not stated) the results were HCMV UL50-53 inh -8.0 and GIV-Gai inh 109.5.
Cc1cc(C)nc(NC(c2cccc(F)c2)c2cc(C)sc2NC(=O)c2ccccc2)n1 (configuration not stated) was read as HCMV UL50-53 inh 0.5, GIV-Gai inh 68.6*, GIV Gai FP conf 64.7 and GIV Gai AS conf 35362.
Screening CCOC(=O)C(NC(=O)c1cccc(Cl)c1)(Nc1sc2c(c1C#N)CCC(C(C)(C)C)C2)C(F)(F)F (configuration not stated) returned GIV-Gai inh 101.4.
CCOC(=O)N1CCC(N2C(=O)c3ccc(C(=O)Nc4ccc(OC)c(Cl)c4)cc3C2=O)CC1 was read as HCMV UL50-53 inh -7.3 and GIV-Gai inh 107.5.
`CNC(=O)COc1coc(CN2CCc3ccccc32)cc1=O` gave HCMV UL50-53 inh -18.5 and GIV-Gai inh 103.8.

Part of the list above in order of length of the SMILES, high to low.
Screening Cc1[nH]n(-c2ccccc2)c(=O)c1C(c1cccc(Br)c1)c1c(C)[nH]n(-c2ccccc2)c1=O returned GIV-Gai inh 73.6*, GIV Gai FP conf 67.7 and GIV Gai AS conf 23480*.
`COC(=O)Cc1c(C)c2cc3c(c(C)c2oc1=O)OCN(CCc1ccc(OC)cc1)C3` gave HCMV UL50-53 inh -45.8 and GIV-Gai inh 98.5.
For O=C1/C(=C/c2ccncc2)CCC/C1=C\c1ccncc1 the results were HCMV UL50-53 inh -20.8, GIV-Gai inh 51.5*, GIV Gai FP conf 51.1* and GIV Gai AS conf 18754*.

(further entries)
For Cc1nc(N2CCOCC2)cc(N2CCN(S(C)(=O)=O)CC2)n1 the results were HCMV UL50-53 inh -27.1 and GIV-Gai inh 97.2.
`CCc1cc(C(O)(C(F)(F)F)C(F)(F)F)c(O)c(C(O)(C(F)(F)F)C(F)(F)F)c1` gave HCMV UL50-53 inh -8.5 and GIV-Gai inh 107.7.
Cn1cc2c3c(cccc31)CN(C(=O)NCC1CCCO1)CC2 (configuration not stated) was read as GIV-Gai inh 92.2.
COCCn1cc2c3c(cccc31)CN(C(=O)NCC1CCCO1)CC2 (configuration not stated) was read as GIV-Gai inh 81.3*, GIV Gai FP conf 60.2* and GIV Gai AS conf 20045.
`O=C(c1ccc(F)cc1)N1CCc2cc(CNS(=O)(=O)c3ccccc3)ccc21` gave GIV-Gai inh 111.0.
CCSc1nnc2c(S(=O)(=O)N3CCOCC3)cccn12 was read as GIV-Gai inh 100.3.
For Nc1cccc2c1C(=O)N(CC(=O)N1CCc3ccccc31)C2=O the results were HCMV UL50-53 inh -10.5.
Nc1cccc2c1C(=O)N(CCO)C2=O was read as HCMV UL50-53 inh -65.1, GIV-Gai inh 74.8*, GIV Gai FP conf 55.4* and GIV Gai AS conf 50751.
CCCCNc1nc(SCC(=O)N2CCN(c3ccccc3)CC2)nc2ccccc12 was read as GIV-Gai inh 110.2.
COc1ccc(C(=O)NC2=C(C(=O)c3ccccc3)N(Cc3ccccc3)S(=O)(=O)c3ccccc32)cc1 was read as HCMV UL50-53 inh -14.4 and GIV-Gai inh 106.9.
Screening Cc1cc(-c2ccccc2)n2nc(-c3ccc(Cl)cc3)cc2n1 returned GIV-Gai inh 50.6*, GIV Gai FP conf 85.2 and GIV Gai AS conf 33087.
For Cc1cc(C(F)(F)F)n2nc(-c3ccccc3)cc2n1 the results were HCMV UL50-53 inh -23.1 and GIV-Gai inh 115.0.
For Cc1cc(N2CCc3ccccc32)n2ncnc2n1 the results were HCMV UL50-53 inh 0.3 and GIV-Gai inh 106.8.
Screening c1ccc2c(c1)CCN2c1c2c(nc3ncnn13)CCC2 returned HCMV UL50-53 inh -9.6, GIV-Gai inh 91.1, GIV Gai FP conf 77.6 and GIV Gai AS conf 25963.
Cc1nc(-c2cccc(-c3noc(-c4ccc5c(c4)OCO5)n3)c2)cs1 was read as GIV-Gai inh 99.0.
Cc1ccc(C)n1-c1ccccc1C(=O)O was read as HCMV UL50-53 inh 30.1, GIV-Gai inh 5.7*, GIV Gai FP conf 11.4* and GIV Gai AS conf 1962*.
Cc1ccc(C)n1-c1cc(Cl)ccc1C(=O)O was read as HCMV UL50-53 inh 79.7*, GIV-Gai inh 60.4*, GIV Gai FP conf 58.8* and GIV Gai AS conf 2339*.
For CCCOc1ccc(Cl)cc1C(=O)O the results were HCMV UL50-53 inh 3.2 and GIV-Gai inh 99.9.
CC(=O)Nc1ccc(-n2c(C)ccc2C)c(C(=O)O)c1 was read as HCMV UL50-53 inh 4.8.
